Counter-ions that a name gives are not always drawn.
What was measured:
[1] = tested on: Line 67 White Leghorn embryos; settings: in vivo
Experimental: The inhibitor was dissolved in saline at concentrations ranging form 1 mg/ml to 100 mg/ml and the injection volume ranged from 20 µl to 100 µl producing doses of 20 µg to 10 mg. Injections were made with a 23 G x 1 inch needle. A light source was used to orient the eggs and the injection is made under the air sac into the egg white surrounding the developing embryo. The hole was sealed with Scotch tape and the eggs were placed in a humidified, rocking incubator. At day fourteen of incubation, the embryos were removed form their shells and dissected to observe development of the gonads.

[2] = tested on: gonads from control males and treated females; settings: in vivo

## N#Cc1ccc(C2CCCc3cncn32)cc1 (racemic) [± 5-(p-cyanophenyl)-5,6,7,8-tetrahydroimidazo [1,5-α] pyridine hydrochloride]
[1]
  hatched: 75
[2]
  spermatogenesis in treated males: normal spermatogenesis
